Literature values as cited in patent publication US4745109A, “Suicide inhibitors of aromatase” (Washington Research Foundation, priority 1984, dated 1988).

System: aromatase
Conditions: cited from earlier work

**Q.** With `CCC1(c2ccc(N)cc2)CCC(=O)NC1=O` (stereo not shown) [aminoglutethimide] as the molecule, how does the specificity to aromatase read?
**A.** not specific to aromatase
